Consider 18 molecules from patent US7982042B2, “Thiozanthene derivatives as delta-opioid modulators” (priority 2003, dated 2011).

The chains behind the UniProt entries cited, without tags or fusion partners.
UniProt P33533, whole entry: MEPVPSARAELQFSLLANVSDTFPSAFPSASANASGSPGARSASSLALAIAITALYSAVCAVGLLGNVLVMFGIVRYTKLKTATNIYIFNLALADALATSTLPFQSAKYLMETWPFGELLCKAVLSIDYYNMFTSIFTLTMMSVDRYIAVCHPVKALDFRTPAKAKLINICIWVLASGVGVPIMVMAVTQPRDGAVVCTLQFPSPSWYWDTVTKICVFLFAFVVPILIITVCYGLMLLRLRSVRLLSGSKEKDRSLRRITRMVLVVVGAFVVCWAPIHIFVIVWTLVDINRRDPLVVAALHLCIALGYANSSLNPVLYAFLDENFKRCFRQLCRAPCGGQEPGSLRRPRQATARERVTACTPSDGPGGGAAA
UniProt P33535, whole entry: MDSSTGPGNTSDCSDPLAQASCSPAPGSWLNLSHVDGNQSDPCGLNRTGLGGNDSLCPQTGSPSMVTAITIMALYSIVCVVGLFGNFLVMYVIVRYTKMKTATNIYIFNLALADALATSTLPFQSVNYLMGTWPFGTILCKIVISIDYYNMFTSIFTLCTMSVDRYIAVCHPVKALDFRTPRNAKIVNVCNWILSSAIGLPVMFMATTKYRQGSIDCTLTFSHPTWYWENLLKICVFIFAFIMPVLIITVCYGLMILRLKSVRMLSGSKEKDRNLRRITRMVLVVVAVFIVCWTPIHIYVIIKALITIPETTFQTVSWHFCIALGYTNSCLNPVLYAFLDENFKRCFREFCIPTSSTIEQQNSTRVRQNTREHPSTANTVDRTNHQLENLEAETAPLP
UniProt P41143, whole entry: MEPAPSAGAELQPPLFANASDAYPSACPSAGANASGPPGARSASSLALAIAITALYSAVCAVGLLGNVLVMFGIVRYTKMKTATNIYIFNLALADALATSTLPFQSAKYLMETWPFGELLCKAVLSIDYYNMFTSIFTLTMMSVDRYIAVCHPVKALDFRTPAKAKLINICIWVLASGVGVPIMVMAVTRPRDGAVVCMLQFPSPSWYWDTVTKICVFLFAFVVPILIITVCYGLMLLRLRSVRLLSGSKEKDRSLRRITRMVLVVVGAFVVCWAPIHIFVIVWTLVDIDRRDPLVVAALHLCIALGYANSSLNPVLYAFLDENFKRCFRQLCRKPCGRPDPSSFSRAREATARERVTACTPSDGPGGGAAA
UniProt P32300, whole entry: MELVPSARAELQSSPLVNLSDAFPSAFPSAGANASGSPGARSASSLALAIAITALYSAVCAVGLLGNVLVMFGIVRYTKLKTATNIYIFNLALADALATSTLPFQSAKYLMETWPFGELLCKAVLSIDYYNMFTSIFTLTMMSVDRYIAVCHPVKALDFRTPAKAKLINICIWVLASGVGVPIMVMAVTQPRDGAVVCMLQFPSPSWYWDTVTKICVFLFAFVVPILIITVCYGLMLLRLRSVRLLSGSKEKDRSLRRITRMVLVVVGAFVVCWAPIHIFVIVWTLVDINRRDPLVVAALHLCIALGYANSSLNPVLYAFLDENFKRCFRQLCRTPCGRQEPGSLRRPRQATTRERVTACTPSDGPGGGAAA

For assay [1], the target named is Rat brain delta opioid receptor (Rattus norvegicus, UniProt P33533). Put plainly: Rat brain delta opioid receptor binding. The settings on record: read-out: rDOR Ki.
Assay [2] concerns the target Rat brain mu opioid receptor (Rattus norvegicus, UniProt P33535). Put plainly: Rat brain mu opioid receptor binding assay ([3H]DAMGO). The settings on record: read-out: rMOR Ki.
For assay [3], the target named is human delta opioid receptor (Homo sapiens, UniProt P41143). In words: [35S]GTPγS binding assay in CHO-hδ cell membranes. The assay is classed as biochemical. The settings on record: read-out: hDOR GTPγS EC50; human delta opioid receptor GTPγS functional assay. Background: Binding of GTPγS marks nucleotide exchange on a G protein.
Assay [4] relates to mice. Put plainly: Mouse Abdominal Irritant Test (MAIT). The settings on record: acetylcholine bromide i.p. 30 min after drug.
Assay [5] concerns the target delta opioid receptor (Mus musculus, UniProt P32300). Put plainly: [35S]GTPγS binding assay in NG108-15 cell membrane. The settings on record: read-out: DOR GTPγS EC50; delta opioid receptor GTPγS functional assay. The assay is classed as biochemical.

In the case of `CCN(CC)C(=O)c1ccc2c(c1)Oc1ccccc1C2=C1CC2CCC(C1)N2CCO`, the figures for the Ki in assay [1] and in assay [2] were 4.57 nM and above 100 nM, respectively. Further, in assay [3], the EC50 came to 14.3 nM.
Consider `CCN(CC)C(=O)c1ccc2c(c1)Oc1ccccc1C2=C1CC2CCC(C1)N2Cc1cnc[nH]1` (single isomer, unassigned) [72], for which the Ki in assay [1] came out at 0.17 nM; in assay [2], 375 nM.
As for `CCNC(=O)c1ccc2c(c1)OCc1ccccc1C2=C1CCN(CC2CC2)CC1`, the values for the Ki in assay [1] and in assay [2] were 2040 nM and 4750 nM, respectively.
The matching figures for `CCN(CC)C(=O)c1ccc2c(c1)Oc1cc(C)ccc1C2=C1CC2CCC(C1)N2`: 3.12 nM and 2950 nM.
On the same counts, the results for `CCN(CC)C(=O)c1ccc2c(c1)Oc1ccc(OC)cc1C2=C1CC2CCC(C1)N2` are 1020 nM and above 10000 nM.
Regarding `CC=C(C)CN1CCC(=C2c3ccccc3COc3cc(C(=O)NCC)ccc32)CC1`, the Ki in assay [1] came out at 271 nM; in assay [2], 1810 nM.
For `CCN(CC)C(=O)c1ccc2c(c1)Oc1ccc(O)cc1C2=C1CC2CCC(C1)N2`, the Ki in assay [1] worked out at 44.4 nM; in assay [2] it was 3100 nM.
On the same counts, the results for `CCNC(=O)c1ccc2c(c1)OCc1ccccc1C2=C1CCN(Cc2ccccn2)CC1` are 60.9 nM and 1150 nM.
The matching figures for `CCN(CC)C(=O)c1ccc2c(c1)Oc1ccc(-c3c(C)noc3C)cc1C2=C1CC2CCC(C1)N2`: 1350 nM and 6700 nM.
In the case of `CCNC(=O)c1ccc2c(c1)Oc1ccccc1C2=C1CC2CCC(C1)N2` (single isomer, unassigned) [Compound 55], the Ki in assay [1] was 68.5 nM; in assay [2] it was 715 nM. Moreover, the “MAIT % I @ 150 μmol” value in assay [4] turned out to be 20%.
Regarding `CCN(CC)C(=O)c1ccc2c(c1)Oc1ccccc1C2=C1CC2CCC(C1)N2Cc1c[nH]cn1` (single isomer, unassigned), the inhibition constant (Ki) in assay [1] is 0.88 nM; in assay [2], above 100 nM. Besides, the EC50 in assay [3] was 4.79 nM.
Regarding `CCN(CC)C(=O)c1ccc2c(c1)Oc1ccc(-c3cccnc3)cc1C2=C1CC2CCC(C1)N2`, the values for the Ki in assay [1] and in assay [2] were 1950 nM and 18700 nM, respectively.
The matching figures for `CCN(CC)C(=O)c1ccc2c(c1)Oc1ccccc1C2=C1CC2CCC(C1)N2Cc1cnc[nH]1` (single isomer, unassigned) [71]: 5.43 nM and 2770 nM.
On the same counts, the results for `CCN(CC)C(=O)c1ccc2c(c1)Oc1ccc(-c3ccccc3)cc1C2=C1CC2CCC(C1)N2` are 2890 nM and 37800 nM.
For the molecule `CCN(CC)C(=O)c1ccc2c(c1)Sc1ccccc1C2=C1CC2CCC(C1)N2Cc1c[nH]cn1` [Compound 74], the Ki is 0.122 nM in assay [1] and 200 nM in assay [2].
In the case of `CCCCN(C)C(=O)c1ccc2c(c1)Oc1ccccc1C2=C1CC2CCC(C1)N2`, the results for the Ki in assay [1] and in assay [2] were 12 nM and 884 nM, respectively. In assay [5], the EC50 turned out to be 77.9 nM.
Regarding `CCN(CC)C(=O)c1ccc2c(c1)Oc1ccc(-c3cccn3C(=O)OC(C)(C)C)cc1C2=C1CC2CCC(C1)N2`, the Ki turned out to be 1080 nM in assay [1] and 15200 nM in assay [2].
`CCNC(=O)c1ccc2c(c1)OCc1ccccc1C2=C1CCN(Cc2c[nH]cn2)CC1`: the results for the Ki in assay [1] and in assay [2] were 218 nM and 2480 nM, respectively.

A word on the Ki: it is the equilibrium dissociation constant of an inhibitor or competing ligand from its target. One may read the EC50 as the concentration that produces a half-maximal response.
